The target in one series is ORL-1 receptor (Homo sapiens (Human), UniProt P41146). Briefly: ORL-1 receptor activity in PerkinElmer ligand binding and cellular assays.
For series [1] the following is noted: water, 9 mol equivalents of HCl, 45° C., followed for 1 and 7 days.

By UniProt entry, the sequences of proteins in these tests, tags left out. Where a name states a change or a piece, a line headed by the entry shows the natural chain unless it says otherwise.
UniProt P41146: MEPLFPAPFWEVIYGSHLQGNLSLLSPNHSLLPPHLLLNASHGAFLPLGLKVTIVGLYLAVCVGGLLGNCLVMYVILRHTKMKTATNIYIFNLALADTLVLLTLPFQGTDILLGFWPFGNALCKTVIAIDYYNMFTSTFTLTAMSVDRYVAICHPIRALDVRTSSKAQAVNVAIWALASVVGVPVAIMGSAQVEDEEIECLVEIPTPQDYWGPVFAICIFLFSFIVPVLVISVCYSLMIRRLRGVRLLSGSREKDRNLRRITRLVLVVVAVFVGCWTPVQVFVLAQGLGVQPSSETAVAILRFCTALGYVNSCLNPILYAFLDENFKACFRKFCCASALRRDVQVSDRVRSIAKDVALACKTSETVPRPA

Molecules are shown by their SMILES.

Turning to `C=CCN1CC[C@]23c4c5ccc(O)c4O[C@H]2[C@@]24CC[C@@]3(C[C@@H]2[C@@](C)(C(C)(C)C)OCO4)[C@H]1C5`, the ORL-1 receptor activity entry on ORL-1 receptor is on record as “shown ORL-1 receptor activity”.

For `CC(C)(C)[C@@]1(C)OCO[C@]23C=C[C@@]4(C[C@@H]21)[C@H]1Cc2ccc(O)c5c2[C@@]4(CCN1CC1CC1)[C@H]3O5`, the ORL-1 receptor activity result on ORL-1 receptor is on record as “shown ORL-1 receptor activity”.

For the compound `CC(C)(C)[C@@]1(C)OCO[C@]23CC[C@@]4(C[C@@H]21)[C@H]1Cc2ccc(O)c5c2[C@@]4(CCN1CC1CC1)[C@H]3O5` [listing 1 of 2 here], in series [1], the “stability in acidic conditions” value is “remained essentially stable”.

Turning to `CC(C)(C)[C@@]1(C)OCO[C@]23CC[C@@]4(C[C@@H]21)[C@H]1Cc2ccc(O)c5c2[C@@]4(CCN1CC1CC1)[C@H]3O5` [listing 2 of 2 here], at ORL-1 receptor, the ORL-1 receptor activity result is recorded as “shown ORL-1 receptor activity”.

Values taken from patent US9315514B2, “1,3-dioxanomorphides and 1,3-dioxanocodides” (dated 2016).
